Experimental findings from US6858645B2, “Tartrate salts of (R) -3-N,N- dicyclobutylamino-8-fluoro-3,4-dihydro-2H-1- benzopyran-5-carboxamide” (AstraZeneca AB, priority 1997, dated 2005) are described below.

Data set [1] is described as follows: Moisture sorption analysis (absorption and desorption), VTI microbalance, as a measure of physical stability. It counts as physicochemical. The note with it: 25° C. How it is done: Determination of Stability […] The moisture sorption analysis, absorption and desorption, respective was performed using a VTI microbalance, Model […] (VTI Corporation, USA) linked to an IBM PC. The relative humidity (RH) within the balance was monitored using a dew point analyser. […] The desorption profile was also obtained.

For data set [2] the following is noted: thermogravimetric measurement.

As to “(R)-3-N,N-Dicyclobutylamino-8-fluoro-3,4-dihydro-2H-1-benzopyran-5-carboxamide Hydrogen (2R,3R)-Tartrate [Example 1]”, the moisture absorbed result in data set [1] (RH of 90%) is recorded as “about 4.2 % (w/w)”. The desorption profile entry in data set [1] (desorption after exposure up to 90% RH) is “the moisture taken up is firmly bound and that the sample has formed a monohydrate”. Further, the “initial weight loss (thermogravimetric)” value in data set [2] is on record as 0.997 % w/w.
